This is an account of results in patent US11345702B1 (Myoforte Therapeutics, Inc., priority 2020, dated 2022).

Sequences of proteins named here, by UniProt entry; tags and fusion partners are left off.
UniProt P15428, whole entry: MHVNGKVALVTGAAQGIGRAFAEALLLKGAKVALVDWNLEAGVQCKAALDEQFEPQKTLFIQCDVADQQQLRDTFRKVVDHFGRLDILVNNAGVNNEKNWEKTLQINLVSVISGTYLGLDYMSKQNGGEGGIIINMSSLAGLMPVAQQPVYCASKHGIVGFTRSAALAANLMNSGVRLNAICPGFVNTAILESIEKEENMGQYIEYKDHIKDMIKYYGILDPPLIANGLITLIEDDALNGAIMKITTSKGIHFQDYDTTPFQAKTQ

The target of data set [1] is 15-PGDH/HPGD (Homo sapiens (Human), UniProt P15428). Briefly: hPGDH inhibitor screening biochemical assay. To be noted: read-out: hPGDH: Average IC50. The protocol:
A hydroxyprostaglandin dehydrogenase inhibition screening biochemical assay can be performed to assess the synthesized inhibitors provided herein. Provided herein is an exemplary biochemical assay for hPGDH inhibitor screening.
The in vitro biochemical assay can be performed in white, 384 plates in total 20 μl reaction volume consisting of 10 nM of 15-PGDH/HPGD (R&D System #5660-DH), 15 μM Prostaglandin E2 (Sigma, Cat #P5640-10MG) and 0.25 mM (3-Nicotinamide adenine dinucleotide sodium salt (Sigma, Cat #N0632-5G) made in reaction buffer (50 mM Tris-HCl, pH 7.5, 0.01% Tween 20) at 10-point dose response curve for test/tool compounds. Briefly, 5 μl (4×) of compounds solution and 5 μl (final concentration, 10 nM) of enzyme solution is added to white 384 well plates and incubated for 10 mins at 37° C. 5 μl (4×) of Prostaglandin E2 and 5 μl (4×) of β-Nicotinamide adenine dinucleotide sodium salt is added to the wells and incubated for 10 mins at room temperature. Fluorescence is recorded at ex/em=340 nm/485 nm. The percentage (%) inhibition of enzyme activity was determined relative to positive control (1% DMSO) and IC50 was calculated using GraphPad prism software (four parameter-variable slope equation).

A short description of data set [2]: Solubility at pH 7.4. The format is physicochemical. The settings on record: 6-5 ring core.

As usually defined, the IC50 is the concentration that gives 50% inhibition. Usually Solubility stands for the dissolved amount per volume that the medium holds. High values mean much dissolved substance, low ones little dissolved substance.

SMILES strings stand for the structures.

On to `O=C(NC1CCS(=O)(=O)CC1)c1ccc(-n2ccc3cc(C(=O)N4CCC(F)(F)CC4)cnc32)cc1`, for which the IC50 in data set [1] is below 0.1 µM.

Consider `CCOC(=O)c1nc2cc(C(=O)N3CCCCC3)ccc2n1-c1cccc(Cl)c1` [MF-PGDH-027, ethyl 1-(3-chlorophenyl)-5-(piperidine-1-carbonyl)-1H-benzo[d]imidazole-2-carboxylate], for which the “Solubility at pH 7.4 (μM)” value in data set [2] was determined as 34 μM.
